ChEMBL document CHEMBL4808148, “HDAC6 screening dataset using tau-based substrate in an enzymatic assay yields selective inhibitors and activators” (2021)
Most of the strong results are listed elsewhere, so they are rarer here than in the full data.

Target: T1, Protein deacetylase HDAC6 (Homo sapiens) (UniProt Q9UBN7)
T1 sequence (whole entry): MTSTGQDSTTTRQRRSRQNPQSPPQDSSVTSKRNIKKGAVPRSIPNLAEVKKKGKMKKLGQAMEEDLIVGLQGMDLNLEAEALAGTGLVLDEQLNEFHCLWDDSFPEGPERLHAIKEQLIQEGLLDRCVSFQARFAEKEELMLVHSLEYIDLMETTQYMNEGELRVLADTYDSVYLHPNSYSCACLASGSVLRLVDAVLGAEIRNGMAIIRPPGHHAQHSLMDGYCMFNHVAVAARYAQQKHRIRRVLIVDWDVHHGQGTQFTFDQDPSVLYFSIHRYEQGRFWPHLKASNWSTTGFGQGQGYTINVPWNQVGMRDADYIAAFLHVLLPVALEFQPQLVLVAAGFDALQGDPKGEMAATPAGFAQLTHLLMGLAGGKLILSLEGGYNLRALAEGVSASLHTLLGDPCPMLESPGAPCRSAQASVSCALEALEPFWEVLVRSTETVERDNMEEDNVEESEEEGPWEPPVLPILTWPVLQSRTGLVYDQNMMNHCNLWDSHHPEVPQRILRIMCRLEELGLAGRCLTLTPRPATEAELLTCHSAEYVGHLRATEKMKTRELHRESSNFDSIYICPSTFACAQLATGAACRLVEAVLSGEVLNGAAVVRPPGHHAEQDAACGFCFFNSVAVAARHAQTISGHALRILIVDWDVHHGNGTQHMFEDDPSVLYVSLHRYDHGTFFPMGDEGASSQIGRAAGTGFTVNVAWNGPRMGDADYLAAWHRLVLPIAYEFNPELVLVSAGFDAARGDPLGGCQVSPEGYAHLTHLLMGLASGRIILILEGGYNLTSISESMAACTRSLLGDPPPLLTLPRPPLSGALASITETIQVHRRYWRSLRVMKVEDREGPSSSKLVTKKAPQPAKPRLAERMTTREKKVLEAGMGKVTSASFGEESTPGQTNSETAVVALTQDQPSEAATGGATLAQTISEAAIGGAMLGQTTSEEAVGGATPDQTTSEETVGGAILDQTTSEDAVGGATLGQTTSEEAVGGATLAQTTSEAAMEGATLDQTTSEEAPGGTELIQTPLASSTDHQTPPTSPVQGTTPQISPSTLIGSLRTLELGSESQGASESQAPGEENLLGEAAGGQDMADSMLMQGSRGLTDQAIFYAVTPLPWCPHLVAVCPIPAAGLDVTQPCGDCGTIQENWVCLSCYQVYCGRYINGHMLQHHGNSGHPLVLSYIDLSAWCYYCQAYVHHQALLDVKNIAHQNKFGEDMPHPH
Conditions: at 10 µM

| Compound | inhibition [%] |
| --- | --- |
| CC(Cc1ccc(O)cc1)NCC(O)c1cc(O)cc(O)c1 (configuration not stated) | -0.38 |
| COc1ccc(CC(C)NCC(O)c2ccc(O)c(NC=O)c2)cc1 (configuration not stated) | -7.28 |
